The species entered for this experiment is Homo sapiens. Put plainly: Selectivity ratio of Ki for human CB1 receptor to Ki for human CB2 receptor.

In the case of `COCCn1c2c(cc(C(=O)NCc3ccccc3)c1=O)CCCCCC2`, the Ratio Ki was determined as 221.

(Values after ChEMBL document CHEMBL2385064, “Selective CB2 agonists with anti-pruritic activity: discovery of potent and orally available bicyclic 2-pyridones” (Bioorg Med Chem, 2013).)
